# Measured affinities in a library of Ab-14 heavy chain variants

Antigen: PDVDLGDISGINAS, a 14-residue peptide of the SARS-CoV-2 spike HR2 region.

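This is the validation round: designs drawn from the data on random variants, tested in the same kind of assay. Their group label is 14H_En_Gibbs (En: ensemble of fine-tuned language models; Gibbs: Gibbs sampling). The assay is AlphaSeq: two haploid yeast populations carry antibody and antigen on their surface. Pairs that bind mate more often; barcode pairs of the diploids are counted by sequencing. The ratio of observed to expected reads was calibrated, replicate by replicate, on BCL2-family standards whose Kd was known from biolayer interferometry. Each pool was mated in six replicate cultures.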

Parent: Ab-14, a human scFv built as VH, the linker GGGGSGGGGSGGGGS, VL. Only the CDRs of the heavy chain vary.
VH: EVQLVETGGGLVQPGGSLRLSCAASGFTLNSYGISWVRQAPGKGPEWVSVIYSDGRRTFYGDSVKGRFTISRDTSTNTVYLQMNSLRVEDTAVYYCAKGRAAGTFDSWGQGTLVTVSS
VL: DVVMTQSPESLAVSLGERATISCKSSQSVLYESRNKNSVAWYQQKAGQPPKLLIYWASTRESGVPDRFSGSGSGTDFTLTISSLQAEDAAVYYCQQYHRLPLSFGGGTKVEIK

The parent's heavy chain CDRs are GFTLNSYGIS, VIYSDGRRTFYGDSVK, GRAAGTFDS; each variant's own CDRs replace them letter for letter.
Affinities are written as log10 Kd with Kd in nM; a lower number is a better binder.
Where no diploid with the target was found in that replicate, the entry reads "nd": below detection, most likely a poor binder, though not proof of it.
In the paper, a design with two or fewer of six values counts as a poor binder.

{"CDR-H1": "GKKLDEYGIS", "CDR-H2": "VIYADGKRNFYSNSVK", "CDR-H3": "GGLATGLFV", "log10 Kd, replicates": "nd / nd / nd / nd / nd / nd", "empty controls": "0 of 18"}
{"CDR-H1": "GFSLDEYGIS", "CDR-H2": "VIYADGARAFYANDVK", "CDR-H3": "GNITDVFGK", "log10 Kd, replicates": "nd / nd / nd / nd / nd / nd", "empty controls": "0 of 18"}
{"CDR-H1": "GFNLDEYGIS", "CDR-H2": "VIYADGMRTQYKDQVK", "CDR-H3": "GNLVATVMT", "log10 Kd, replicates": "nd / nd / nd / nd / nd / nd", "empty controls": "0 of 18"}
{"CDR-H1": "GFALNEYGIS", "CDR-H2": "VIYADGFRRAYTDKVK", "CDR-H3": "GVTVGNFSS", "log10 Kd, replicates": "nd / 2.90 / nd / nd / nd / nd", "empty controls": "0 of 18"}
{"CDR-H1": "GFDIEEYGVS", "CDR-H2": "VIYADGQRTMYTPNVK", "CDR-H3": "GNITGLADI", "log10 Kd, replicates": "nd / nd / nd / nd / nd / nd", "empty controls": "0 of 18"}
{"CDR-H1": "GFDLSEYGIS", "CDR-H2": "VIYADGRRTAYQDSVK", "CDR-H3": "GLNEGMLVV", "log10 Kd, replicates": "nd / nd / nd / nd / nd / nd", "empty controls": "0 of 18"}
{"CDR-H1": "GKSLDEMGIS", "CDR-H2": "VIYADGHRKMYANDVK", "CDR-H3": "GHVGAIFMM", "log10 Kd, replicates": "nd / nd / nd / nd / nd / nd", "empty controls": "0 of 18"}
{"CDR-H1": "GFSLDEMGIS", "CDR-H2": "VIYADGQRTSYVDNVK", "CDR-H3": "GVQGSRVSL", "log10 Kd, replicates": "1.20 / 0.67 / 1.14 / 1.05 / 0.64 / 1.34", "empty controls": "1 of 18 (4.21)"}
{"CDR-H1": "GFNLDEMGIS", "CDR-H2": "VIYADGSRQVYADSFK", "CDR-H3": "GHFGGNKLN", "log10 Kd, replicates": "nd / nd / nd / nd / nd / nd", "empty controls": "0 of 18"}
{"CDR-H1": "GFTLDEYGIS", "CDR-H2": "VIYADGVRVEYADSVK", "CDR-H3": "GSHGLYLML", "log10 Kd, replicates": "nd / nd / nd / nd / nd / nd", "empty controls": "0 of 18"}
{"CDR-H1": "EMDLQEFGIS", "CDR-H2": "VIYADGKREAYKDDFK", "CDR-H3": "GQVAGTFDL", "log10 Kd, replicates": "0.84 / 0.56 / 1.78 / 1.14 / 0.66 / 1.36", "empty controls": "0 of 18"}
{"CDR-H1": "EDSLNEYGIS", "CDR-H2": "VIYADGMRAAYADPVK", "CDR-H3": "GENDGLFDQ", "log10 Kd, replicates": "nd / nd / 4.33 / nd / nd / nd", "empty controls": "1 of 18 (1.27)"}
{"CDR-H1": "GQDLEHYGIS", "CDR-H2": "VIYADGKRSGYSNAVK", "CDR-H3": "GQQAGTFNT", "log10 Kd, replicates": "0.05 / -0.20 / 0.38 / -0.23 / -0.15 / 0.08", "empty controls": "1 of 18 (2.90)"}
{"CDR-H1": "GFDLDEYGIS", "CDR-H2": "VIYADGTRKMYLPTFK", "CDR-H3": "GNHGGTFLM", "log10 Kd, replicates": "nd / nd / nd / nd / nd / nd", "empty controls": "0 of 18"}
{"CDR-H1": "GFGLDEYGIS", "CDR-H2": "VIYADGMRVVYTQDVK", "CDR-H3": "GLYTFVKGI", "log10 Kd, replicates": "nd / nd / nd / nd / nd / nd", "empty controls": "0 of 18"}
{"CDR-H1": "GQNLDEYGIS", "CDR-H2": "VIYADGQRVAYDDPVK", "CDR-H3": "GEQGGTVMV", "log10 Kd, replicates": "nd / nd / nd / nd / nd / nd", "empty controls": "0 of 18"}
{"CDR-H1": "GPSLDEYGIS", "CDR-H2": "VIYADGVRQQYADDVK", "CDR-H3": "GQIGNFVNY", "log10 Kd, replicates": "nd / nd / nd / nd / nd / nd", "empty controls": "0 of 18"}
{"CDR-H1": "GRNLDEYGIS", "CDR-H2": "VIYADGQRTSYRDNVK", "CDR-H3": "GQNSGHLDM", "log10 Kd, replicates": "nd / nd / nd / nd / nd / nd", "empty controls": "0 of 18"}
{"CDR-H1": "GMDLQEFGIS", "CDR-H2": "VIYADGVREYYTDDFK", "CDR-H3": "GQIAGTIDL", "log10 Kd, replicates": "nd / nd / nd / nd / nd / nd", "empty controls": "0 of 18"}
{"CDR-H1": "GFALDEYGIS", "CDR-H2": "VIYADGSRTVYAGDVK", "CDR-H3": "GMLGAAFDM", "log10 Kd, replicates": "nd / nd / nd / nd / nd / nd", "empty controls": "0 of 18"}
{"CDR-H1": "GFDINEYGIS", "CDR-H2": "VIYADGMRTKYSESVK", "CDR-H3": "GTGDGSFNG", "log10 Kd, replicates": "nd / nd / nd / nd / nd / nd", "empty controls": "0 of 18"}

3 of these entries, quoted again:

CDR-H1	CDR-H2	CDR-H3	log10 Kd, replicates	empty controls
GFTLDEYGIS	VIYADGVRVEYADSVK	GSHGLYLML	nd / nd / nd / nd / nd / nd	0 of 18
GKSLDEMGIS	VIYADGHRKMYANDVK	GHVGAIFMM	nd / nd / nd / nd / nd / nd	0 of 18
GFNLDEYGIS	VIYADGMRTQYKDQVK	GNLVATVMT	nd / nd / nd / nd / nd / nd	0 of 18

A sequence measured in both rounds can read differently, since the two assays cover different ranges.
Background: pairings of all heavy chain designs with three empty control strains gave a value in 1% of cases (median 2.08, 5th percentile 0.84). Values in that range, when seen in few replicates, are hard to tell from nonspecific mating. For each scFv, signals with the empty controls are counted beside the result, with their mean in brackets.

The measurements come from Li et al. 2023 (doi:10.1038/s41467-023-39022-2) through the FLAb antibody collection.